Here are results for two molecules from article PMC12205653 (The Journal of Biological Chemistry, 2025).

To fix the notation:
T1: His10-LgBiT-CAPNS1 M224STOP (human, UniProt P04632 60-223)
T1 construct: CAPNS1, human, PEF(S) domain from residue 60 with a stop codon at position M224 (EF5 completely removed); also called CAPNS1 with complete truncation of EF5; source: E. coli, purified; not shown: LgBiT, N-terminal, kept
T1 sequence (looked up): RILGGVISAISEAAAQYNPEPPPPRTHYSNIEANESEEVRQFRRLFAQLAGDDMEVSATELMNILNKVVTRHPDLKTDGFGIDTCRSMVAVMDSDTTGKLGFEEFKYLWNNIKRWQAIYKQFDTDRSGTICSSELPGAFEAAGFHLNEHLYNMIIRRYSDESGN

T2: His10-LgBiT-CAPNS1 (human, UniProt P04632 60-268)
T2 construct: CAPNS1, calpain small regulatory subunit, human, penta-EF-hand domain PEF(S), residues 60-268; Cloned in pET16b; also called CAPNS1 PEF(S) biosensor component; source: E. coli BL21 RIPL; not shown: His10, N-terminal, kept; LgBiT, N-terminal, kept
T2 sequence (looked up): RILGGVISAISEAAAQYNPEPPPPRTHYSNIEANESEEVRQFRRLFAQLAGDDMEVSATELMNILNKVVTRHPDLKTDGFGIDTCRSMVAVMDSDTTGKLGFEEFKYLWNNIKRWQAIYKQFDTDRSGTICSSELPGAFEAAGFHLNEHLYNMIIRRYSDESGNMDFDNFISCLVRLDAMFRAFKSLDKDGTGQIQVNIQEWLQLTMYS

B1: His6-MBP-CAPNS1 protein without the LgBiT (domain or fragment)
chain: T2 sequence (looked up)
modifications: His6-MBP carrier left out. Limits 60-268 are printed for the CAPNS1 PEF biosensor constructs (Methods, Fig. 2 and Fig. 5I legends) and are assumed to apply to this LgBiT-less competitor. Assay buffer
B2: His6-MBP-SmBiT-CAPN2 (domain or fragment, human, UniProt P17655 524-700, looked up)
chain: DISEDDIDDGFRRLFAQLAGEDAEISAFELQTILRRVLAKRQDIKSDGFSIETCKIMVDMLDSDGSGKLGLKEFYILWTKIQKYQKIYREIDVDRSGTMNSYEMRKALEEAGFKMPCQLHQVIVARFADDQLIIDFDNFVRCLVRLETLFKIFKQLDPENTGTIELDLISWLCFSVL
notes: CAPN2, calpain-2 catalytic subunit, human, penta-EF-hand domain PEF(L), residues 524-700; Cloned in pHT29 (modified pET16b); also called CAPN2 PEF(L) biosensor component; source: E. coli BL21 RIPL; not shown: His6, N-terminal, kept; MBP, N-terminal, kept; SmBiT, N-terminal, kept

Conditions in all cases: both partners purified
In the assay “His6-MBP-SmBiT-CAPN2” the target is B2. The assay can be described thus: split reporter (BiFC, NanoBiT); competition: 25 nM LgBiT-CAPNS1 and 250 nM SmBiT-CAPN2 with increasing concentrations of LgBiT-less CAPNS1.
The target of assay [1] is T1, His10-LgBiT-CAPNS1 M224STOP. The assay can be described thus: split reporter (BiFC, NanoBiT); purified proteins at 25 nM for each component, 5 mM Ca2+.
The next assay concerns the target T2, His10-LgBiT-CAPNS1. Kind of assay: split reporter (BiFC, NanoBiT); fixed 100 nM LgBiT-CAPNS1, increasing SmBiT-CAPN1/2, 5 mM Mg2+ in place of Ca2+; estimated KD from the inflection of the plot assuming first-order kinetics.

A word on the IC50: it is the midpoint of a concentration-inhibition curve. A low value points to greater potency in that assay. B1 returned an IC50 in the assay with His6-MBP-SmBiT-CAPN2 of 463 nM. This lies in the sub-micromolar range.

A word on the Kd: it is the equilibrium constant for the complex coming apart. In the case of B2, the “PPI strength, percent of WT” value in assay [1] is 11 % of WT. Moreover, the Kd with His10-LgBiT-CAPNS1 was 1650 nM.
